Test results: ChEMBL document CHEMBL2417538, “Antithrombotic effects of LB30870, a potent, orally active, selective and direct thrombin inhibitor, and pharmacokinetics of its prodrug” (Bioorg Med Chem Lett, 2013)

Assays:
Prothrombin [1] = target: T1, Prothrombin (Homo sapiens, UniProt P00734); assay: Inhibition of thrombin (unknown origin) assessed as fibrin clot formation
Prothrombin [2] = target: T1, Prothrombin; assay: Inhibition of free thrombin (unknown origin) using S2238 as substrate
Prothrombin [3] = target: T1, Prothrombin; assay: Inhibition of plasma clot-bound thrombin (unknown origin) using S2238 as substrate
Prothrombin [4] = target: T1, Prothrombin; assay: Binding affinity to thrombin (unknown origin) by surface plasmon resonance analysis
Prothrombin [5] = target: T1, Prothrombin; assay: Inhibition of human thrombin

CC1CNc2c(cccc2S(=O)(=O)N[C@@H](CCCNC(=N)N)C(=O)N2CC[C@@H](C)C[C@@H]2C(=O)O)C1 (stereo not given in full) [ARGATROBAN]
IC50 (Prothrombin [1]): 1580 nM
IC50 (Prothrombin [2]): 10.6 nM
IC50 (Prothrombin [3]): 92.4 nM
Kd (Prothrombin [4]): 2.42 nM
Ki (Prothrombin [5]): 4.5 nM
